This is an account of results in patent publication US12448371B2, “Inhibitor compounds” (Cincera Therapeutics Pty Ltd, priority 2019, dated 2025).

Chains of the proteins cited; added tags and fusions are not shown.
UniProt O15121, whole entry: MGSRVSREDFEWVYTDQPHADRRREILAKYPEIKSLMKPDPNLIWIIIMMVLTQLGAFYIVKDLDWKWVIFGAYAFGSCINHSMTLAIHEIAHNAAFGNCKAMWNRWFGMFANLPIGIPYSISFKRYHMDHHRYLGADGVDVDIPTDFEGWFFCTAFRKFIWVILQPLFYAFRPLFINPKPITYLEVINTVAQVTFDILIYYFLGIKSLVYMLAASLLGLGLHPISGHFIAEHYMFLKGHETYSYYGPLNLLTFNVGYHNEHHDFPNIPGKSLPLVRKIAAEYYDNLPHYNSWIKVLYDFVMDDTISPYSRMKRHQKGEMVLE

For one experiment, the target named is Des1 (h) (Homo sapiens, UniProt O15121). As to the kind of experiment: Measurement of Dihydroceramide Desaturase-1 (Des-1) activity in intact Jurkat cells labeled with DhCer-C6-NBD (HPLC). Conditions: read-out: Des1 (h) Jurkat IC50, given as concentration range, or <X / >X if measured at one concentration X only.
For experiment [1], the system named is Connective Tissue Growth Factor (CTGF) gene expression. As to the kind of experiment: Real time quantitative PCR in TGFβ-stimulated human hepatic stellate cells (LX2) to detect CTGF gene expression. The format is cell-based. Conditions: 5 μM; CTGF mRNA in TGFβ-stimulated LX2 cells vs vehicle control. The procedure: Real Time Quantitative Polymerase Chain Reaction in Human Hepatic Stellate Cells (LX2) to Detect Connective Tissue Growth Factor (CTGF) Gene Expression The hepatic stellate cell line, LX2 was maintained in DMEM (LifeTechnologies) with 2% heat-inactivated FBS, 100U penicillin (LifeTechnologies), 0.1 mg/mL streptomycin (LifeTechnologies), and 2 mM L-glutamine (LifeTechnologies) at 37° C. with 5% CO2. Cells were seeded into 6-well plates (200,000 cells per well, 2 mLs media) and grown overnight. The cells were changed to 2 mLs 0.5% FBS media for 24 hours prior to treatment. Treatments were added in 2 mLs fresh 0.5% FBS media (vehicle control, long/mL TGFβ alone (R&D Systems), 10 ng/mL TGFβ+inhibitors) and incubated for 24 hours. […] RNA was extracted using Qiagen RNeasy kit (cat #74104), according to manufacturer's instructions. RNA (1 μg) was used to generate cDNA using the Qiagen Quantitect Reverse Transcription Kit (cat #205311), and stored at -20° C. cDNA was diluted (1:25 final) and combined with Sybr Green (Qiagen cat #204143), forward and reverse primers (50 ng each) and run on Real Time PCR Thermocycler machine (RG-6000, Corbett) with the following PCR conditions: Hold 1: 50° C. for 2 min; Hold 2: 95° C. for 15 min; Cycling: 45 cycles of: 95° C. for 30 sec, 58° C. for 21 sec, 72° C. for 15 sec, Hold 3: 72° C. for 30 sec, Melt: 72° C. to 99° C. […]

Structures are written as SMILES. pIC50: −log10 of the molar value.

With `NC(=NO)c1cnc(Nc2cnn(-c3ccc(C(F)(F)F)cc3)c2)cn1`, the pIC50 on Des1 (h) is above 6.00. Also, the “CTGF, LX2 % inhibition” value in experiment [1] is above 90%.
